In ChEMBL document CHEMBL4680109, “A road map for prioritizing warheads for cysteine targeting covalent inhibitors” (Eur J Med Chem, 2018):

Assay: Inhibition of recombinant cathepsin X (unknown origin) expressed in Pichia pastoris assessed as residual activity at 100 uM using Abz-Fek(Dnp)-OH as substrate preincubated for 30 mins under shaking in presence of 5 mM cysteine followed by substrate addition relative to control
Conditions: Homo sapiens

In the case of `O=C(CBr)c1ccc([N+](=O)[O-])cc1`, the Activity is reported as 75%.
